# According to patent publication US20230335758A1, “REDOX FLOW BATTERY” (University of Massachusetts, priority 2022, published 2023):
# Where two headings read alike, the source gives them in different places.
# Experiments:
# [1] = vs SHE, literature; cited from earlier work
# [2] = 17 mM in acetonitrile
substance,measurement,setting,value
tetrabutylammonium vanadium(iv)bis-hydroxyiminodiacetate [[TBA]2[VBH]],reduction potential,[1],~0.3
same,oxidation to V^5+BH,"[2]; one equivalent CoHCF, one equivalent of KPF6",quantitative oxidation
same,oxidation to V^5+BH,"[2]; stirred one hour with one equivalent CoHCF, no added K^+",less than 1%
